# Values quoted from earlier work as cited in patent US9175000B2, “Buprenorphine analogs” (dated 2015).
# Sequences of proteins named here, by UniProt entry; tags and fusion partners are left off. A change or cut given only in a name is not applied to a line headed by its entry.
# UniProt P41146: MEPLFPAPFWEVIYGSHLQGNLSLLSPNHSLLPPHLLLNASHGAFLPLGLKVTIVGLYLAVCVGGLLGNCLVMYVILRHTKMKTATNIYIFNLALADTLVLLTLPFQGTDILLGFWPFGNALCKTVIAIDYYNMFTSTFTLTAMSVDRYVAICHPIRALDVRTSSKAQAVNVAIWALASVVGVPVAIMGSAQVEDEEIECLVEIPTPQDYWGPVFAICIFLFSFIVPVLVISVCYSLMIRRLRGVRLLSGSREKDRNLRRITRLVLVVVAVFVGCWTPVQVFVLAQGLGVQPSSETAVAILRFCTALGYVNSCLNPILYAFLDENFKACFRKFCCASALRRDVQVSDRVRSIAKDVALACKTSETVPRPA
# Biological target: ORL-1 (Homo sapiens (Human), UniProt P41146)
# Conditions: read-out: IC50 at ORL-1; at least partial agonists for ORL-1; Wnendt et al. 1999
substance,measurement,value
7-benzylidenenaltrexone,IC50,10 µM
